Source: PubChem BioAssay (NCI)
The entries are a selection whose mix differs from that of the whole data set.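 Negative percent growth values reflect cell death: -40 means 40% of the cells present at the start died, and -100 means all died.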 Active and inactive are the calls of the source. Rule for the calls: active = growth percent below 10; inactive = the rest.

How the values were obtained:
Test in all cases: NCI-60 one-dose screen, 48 h (100 = growth as untreated, 0 = no growth, -100 = all killed)
Conditions in all cases: 10 µM
NCI-H23 lung = system: NCI-H23 lung
NCI-H226 lung = system: NCI-H226 lung
NCI-H322M lung = system: NCI-H322M lung
HOP-62 NSCLC = system: HOP-62 NSCLC
NCI-H460 lung = system: NCI-H460 lung
HOP-92 NSCLC = system: HOP-92 NSCLC
A549/ATCC NSCLC = system: A549/ATCC NSCLC
786-0 renal = system: 786-0 renal
COLO 205 colon = system: COLO 205 colon
DU-145 prostate = system: DU-145 prostate
K-562 leukemia = system: K-562 leukemia
MALME-3M melanoma = system: MALME-3M melanoma
MDA-MB-231 breast = system: MDA-MB-231 breast
RXF 393 renal = system: RXF 393 renal
SF-268 CNS = system: SF-268 CNS
SF-295 CNS = system: SF-295 CNS
SF-539 CNS = system: SF-539 CNS
UACC-257 melanoma = system: UACC-257 melanoma
M14 melanoma = system: M14 melanoma
NCI-H522 lung = system: NCI-H522 lung

Measured: growth

CCOP(=O)(Cl)OCC
inactive: NCI-H23 lung 103% | NCI-H226 lung 103% | NCI-H322M lung 92.4% | HOP-62 NSCLC 98.6% | NCI-H460 lung 109% | HOP-92 NSCLC 84% | A549/ATCC NSCLC 105% | 786-0 renal 104% | COLO 205 colon 112% | DU-145 prostate 106% | K-562 leukemia 104% | MALME-3M melanoma 101% | MDA-MB-231 breast 106% | RXF 393 renal 111% | SF-268 CNS 101% | SF-295 CNS 77.4% | SF-539 CNS 96.9% | UACC-257 melanoma 93.5% | M14 melanoma 97.7%

COc1c(C)cc(N(CCCl)CCCl)c2ccccc12
inactive: NCI-H23 lung 42.8% | NCI-H226 lung 60.1% | NCI-H322M lung 77.6% | HOP-62 NSCLC 53.5% | NCI-H460 lung 18.1% | NCI-H522 lung 64% | A549/ATCC NSCLC 41.9% | 786-0 renal 17.3% | COLO 205 colon 62.1% | DU-145 prostate 38% | K-562 leukemia 63.2% | MALME-3M melanoma 65.7% | MDA-MB-231 breast 105% | RXF 393 renal 58.7% | SF-268 CNS 47.1% | SF-295 CNS 11.2% | SF-539 CNS 10.4% | UACC-257 melanoma 62.7% | M14 melanoma 46.5%

Cc1ccc(S(=O)(=O)CN(CCBr)CCBr)cc1
inactive: NCI-H23 lung 105% | NCI-H226 lung 103% | NCI-H322M lung 110% | HOP-62 NSCLC 109% | NCI-H460 lung 103% | HOP-92 NSCLC 96.1% | NCI-H522 lung 92.2% | A549/ATCC NSCLC 90.1% | 786-0 renal 106% | COLO 205 colon 125% | DU-145 prostate 118% | K-562 leukemia 112% | MALME-3M melanoma 118% | MDA-MB-231 breast 115% | SF-268 CNS 108% | SF-295 CNS 91% | SF-539 CNS 100% | UACC-257 melanoma 80.1% | M14 melanoma 99.4%

CC(C)NP(=O)(F)NC(C)C
inactive: NCI-H23 lung 94% | NCI-H226 lung 101% | NCI-H322M lung 90.3% | NCI-H460 lung 107% | HOP-92 NSCLC 93.9% | NCI-H522 lung 108% | A549/ATCC NSCLC 97.3% | 786-0 renal 107% | COLO 205 colon 105% | DU-145 prostate 105% | K-562 leukemia 97.7% | MALME-3M melanoma 92.9% | MDA-MB-231 breast 112% | RXF 393 renal 113% | SF-268 CNS 96.3% | SF-295 CNS 102% | SF-539 CNS 104% | UACC-257 melanoma 98.8% | M14 melanoma 112%

CCOC(=O)N1CCC(=O)CC1
inactive: NCI-H23 lung 97.4% | NCI-H226 lung 94.9% | NCI-H322M lung 93.7% | HOP-62 NSCLC 101% | NCI-H460 lung 104% | NCI-H522 lung 87.7% | A549/ATCC NSCLC 96.6% | 786-0 renal 96.8% | DU-145 prostate 106% | K-562 leukemia 97.6% | MALME-3M melanoma 107% | MDA-MB-231 breast 107% | RXF 393 renal 100% | SF-268 CNS 103% | SF-295 CNS 96.8% | SF-539 CNS 98.2% | UACC-257 melanoma 92.1% | M14 melanoma 109%

CCNC(=O)Cc1ccc(N(CCCl)CCCl)cc1
inactive: NCI-H23 lung 88.2% | NCI-H226 lung 80.6% | NCI-H322M lung 98.1% | HOP-62 NSCLC 78.6% | NCI-H460 lung 44.9% | A549/ATCC NSCLC 74.1% | 786-0 renal 83.7% | COLO 205 colon 94% | DU-145 prostate 86.4% | K-562 leukemia 84.3% | MALME-3M melanoma 86.2% | MDA-MB-231 breast 101% | RXF 393 renal 77.1% | SF-268 CNS 69.9% | SF-295 CNS 38.8% | SF-539 CNS 62.2% | UACC-257 melanoma 90.5% | M14 melanoma 107%

ClCCN(CCCl)Cc1nc2cc(Cl)c(Cl)cc2[nH]1
inactive: NCI-H226 lung 86.5% | NCI-H322M lung 117% | HOP-62 NSCLC 85.6% | NCI-H460 lung 16% | NCI-H522 lung 73% | A549/ATCC NSCLC 60.8% | 786-0 renal 56.4% | COLO 205 colon 96% | DU-145 prostate 61.6% | K-562 leukemia 61.9% | MALME-3M melanoma 104% | MDA-MB-231 breast 112% | RXF 393 renal 95% | SF-268 CNS 53.4% | SF-295 CNS 42.6% | SF-539 CNS 54.3% | UACC-257 melanoma 86.8% | M14 melanoma 70.9%
